Reference: article PMC7910549

Biological target: GFP-tagged CSB (UniProt Q03468)
Assay: affinity purification with mass spectrometry; label-free quantification and iBAQ; GFP-CSB pulled down with GFP Trap beads from U2OS CSB-KO cells; untreated against 20 J/m^2 UV-C with 1 h recovery

In the case of “polymerase-associated factor 1 complex (PAF1C), endogenous (from UniProt Q8N7H5 1-531; Q8WVC0 1-666; Q6PD62 1-1173; Q9GZS3 1-305; Q6P1J9 1-531)”, the percent of the isolated CSB molecules associated (iBAQ) is reported as over 60%.
